Assay results reported in paper PMC10495264 (Nature Cell Biology, 2023).

tested on: TORC1-pathway genes; settings: cells cultured on the compound versus untreated libraries; re-analysis of published datasets ref 24, 25

SMILES | transposon events in TORC1-pathway genes (SATAY)
C/C=C/C/C=C/CCC(=O)[C@H]1O[C@H]1C(N)=O [cerulenin] | under-represented
CO[C@H]1CCCC[C@@H](c2ccccc2)OC(=O)[C@@H](C)[C@@]2(O)O[C@H]([C@@H](C)[C@H](O)[C@H]2OC)[C@@H](C)/C=C/[C@H]1OC [soraphen A] | over-represented
CO[C@H]1C[C@@H]2CC[C@@H](C)[C@@](O)(O2)C(=O)C(=O)N2CCCC[C@H]2C(=O)O[C@H]([C@H](C)C[C@@H]2CC[C@@H](O)[C@H](OC)C2)CC(=O)[C@H](C)/C=C(\C)[C@@H](O)[C@@H](OC)C(=O)[C@H](C)C[C@H](C)/C=C/C=C/C=C/1C [rapamycin] | under-represented
